Reference: paper PMC5074076, “Novel minimal physiologically-based model for the prediction of passive tubular reabsorption and renal excretion clearance” (European Journal of Pharmaceutical Sciences, 2016)

Legend:
[1] = Ionisation classification at pH 6.5 from pKa; conditions: predominant species (> 50%) at pH 6.5 from measured or calculated pKa
[2] = calculated from pKa and LogD7.4
[3] = octanol-buffer pH 7.4, shake-flask
[4] = healthy subjects; plasma and urine data from same subjects; normalised for subject weight and body surface area where necessary; ref Table S2.1; cited from earlier work

| Substance | Ionisation at pH 6.5 [1] | LogD6.5 [2] | LogD7.4 [3] | Overall weighted mean CLR [4] [mL/min] |
| --- | --- | --- | --- | --- |
| Chlorpheniramine | Base | 0.31 | 1.22 |  |
| Maraviroc |  |  |  | 177.2 |
| Propafenone | Base |  |  |  |
